What all share (format): in vivo, mouse
Data set [1] has as its system wildtype and FGF14 deficient mice. The data set can be described thus: PTZ-induced seizure: latency to onset and time to death. The note with it: 75 mg/kg and 100 mg/kg intraperitoneal. As for the experimental part:
Pentylenetetrazol (Sigma) was dissolved in saline (10 mg/ml) and injected intraperitoneally at a dose of either 75 or 100 mg/kg. Time to onset of tonic-clonic seizure was recorded. In the first experiment (FIG. 9), the mean age was 82 days and the sex ratio was 50% male/female. In the second experiment, the mean age was 354 days and all animals were female.

Data set [2] relates to p44/42 MAPK (ERK). Briefly: ERK activation in response to PTZ (Western blot of brain tissue). The note with it: 75 mg/kg intraperitoneal, 90 sec after injection. Here is the method: For ERK activation, adult (6-23 wk) Fgf14^N-βGal/N-βGal and wildtype female mice were injected intraperitoneally with 75 mg/kg PTZ or PBS. On each of three days prior to the day of the experiment, each mouse was twice injected intraperitoneally with PBS to habituate the animals to handling and injections. The animals were sacrificed 90 sec after the experimental injection (or at the onset of status epilepticus). The cerebral hemisphere and cerebellum were removed and homogenized in 500 μl of boiling lysis buffer (1% SDS; 20 μl/ml protease inhibitor cocktail solution (Sigma P8340); and 1 mM Sodium ortho-vanadate). Protein levels in supernatants wee determined by the Bradford method using a protein assay kit (Bio-Rad, Hercules, Calif.). Aliquots of each sample containing 20 μg of protein were electrophoresed on precast 12% Tris-HCI polyacrylamide gels (Bio-Rad). Proteins were visualized with a polyclonal rabbit anti-phospho-p44/42 MAPK (ERK) antibody (1:1000; Cell Signaling, Beverly, Md.) or polyclonal anti-p44/42 ERK (1:1000; Cell Signaling). The images were scanned (AGFA DuoScan), and densitometry data was analyzed using Quantity One Software (Bio-Rad).
For orientation: In western blotting, separated proteins are transferred to a membrane and probed.

The test system of data set [3] is wildtype and Fgf14^N-βGal/N-βGal mice. Briefly: Locomotor activity response to stimulant drugs and dopamine receptor agonists. The note with it: 0.5 or 2 mg/kg. As for the experimental part: Locomotor activity. For the locomotor activity experiments, all mice were acclimated to the activity cages (28 cm long×17 cm wide×12.5 cm high) for one hour on two consecutive days. […] Mice were tested every other day and the order of drug treatment was counterbalanced across days within genotype groups. Locomotor activity was recorded every five minutes by two beams of red light placed at 10 and 19 cm along the length of the activity cage.
Statistical Analyses. The behavioral data were analyzed using analysis of variance (ANOVA) models typically containing one between-subjects variable (Genotype) and one within-subjects variable (e.g., Trials or Test Sessions). Subsequent one-way ANOVAs were used to evaluate main effects. Data from the experiments concerning drug effects on locomotor activity were analyzed by using a […] analysis of variance (ANOVA) with one between-subjects variable (Drug) being added to the above model. […] Alpha was set at p<0.05 for all analyses.

Molecules are shown by their SMILES. “Also recorded” adds a separate entry of the source.

Consider `C1CCc2nnnn2CC1` [PTZ, pentylenetetrazol], for which, in data set [1], the “latency to PTZ induced seizure relative to wildtype” value is on record as “significantly shorter latency”. Moreover, in data set [2] (cerebellum), the ERK activation result was “No change”. The “elevation of relative level of phospho-ERK” value in data set [2] (cerebral hemispheres of Fgf14^N-βGal/N-βGal mice) turned out to be 2 fold.

With `CCCN1CCC[C@@H]2Cc3n[nH]cc3C[C@H]21` [quinpirole], in data set [3], the “locomotor response (locomotor depression)” value is reported as “no significant response; also recorded: failed to cause locomotor depression”.
